Among the data in patent US20130137855A1 (CSL, published 2013) are Kd values, retold here.

The assay has as its target T1, Soluble human IL-3Rα (human, UniProt P26951 20-305, limits assumed).
T1 construct: The assay used 'soluble human IL-3Rα'; also called IL-3Rα chain; interleukin 3 receptor alpha chain
T1 sequence: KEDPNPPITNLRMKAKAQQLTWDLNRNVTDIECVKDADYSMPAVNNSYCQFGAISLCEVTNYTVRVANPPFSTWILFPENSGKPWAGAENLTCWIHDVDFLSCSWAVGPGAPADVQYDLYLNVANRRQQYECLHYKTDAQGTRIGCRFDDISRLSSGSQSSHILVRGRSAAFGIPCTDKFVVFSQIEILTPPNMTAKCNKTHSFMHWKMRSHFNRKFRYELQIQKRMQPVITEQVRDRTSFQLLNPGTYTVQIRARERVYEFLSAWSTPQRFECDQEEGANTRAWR
Put plainly: SPR (Biacore), mAb captured by anti-human Fc antibody, soluble human IL-3Rα injected, 25 °C. As to the method:
To analyze full-length antibodies, surface plasmon resonance (Biacore) assays were performed in a capture format where a chemically immobilized anti human or anti mouse Fc specific antibody (Anti human Goat anti Human IgG (gamma) mouse adsorbed (Invitrogen, Cat No. H10500) or anti mouse Fc specific antibody (Jackson Immuno Research Labs inc. Cat No. 515-005-071) were chemically immobilized on a CM-5 sensor surface using standard amine coupling chemistry) and used to capture the mAb from solution. Soluble human IL-3Rα was then injected over captured antibody at various concentrations. Responses were subtracted from those from a reference flow cell in which antibody was not captured, but otherwise treated identically. The reference subtracted responses were then subtracted from the responses from a blank injection.
The final corrected responses were fitted using non-linear regression to a model describing 1:1 kinetics, including a term for mass transport limitation. The Rmax value was fitted locally, to account for slight deviations in the level of antibody captured. Association rate (ka), dissociation rate (kd) and equilibrium dissociation constant (KD) were determined.
Soluble IL-3Rα was injected at 0, 0.62, 1.25, 2.5, 5, 10, 20 and 40 nM, with 2.5 and 5 nM in duplicate
In general terms: In SPR one partner is held on a chip, and binding of the other changes the refractive index at the surface.

B1: CSL362 (IgG1) (antibody, V domains shown)
VH: EVQLVQSGAEVKKPGESLKISCKGSGYSFTDYYMKWARQMPGKGLEWMGDIIPSNGATFYNQKFKGQVTISADKSISTTYLQWSSLKASDTAMYYCARSHLLRASWFAYWGQGTMVTVSS
VL: DIVMTQSPDSLAVSLGERATINCESSQSLLNSGNQKNYLTWYQQKPGQPPKPLIYWASTRESGVPDRFSGSGSGTDFTLTISSLQAEDVAVYYCQNDYSYPYTFGQGTKLEIKR
notes: Human IgG1 format
For orientation: Kd means the equilibrium constant for the complex coming apart. Lower therefore signals a tighter complex. On to B1, for which the Kd was approximately 0.78 nM.
